Yeast mating assay 2: variants of the scFv Ab-95

Reference: Engelhart et al. 2022, doi:10.1038/s41597-022-01779-4. File: FLAb, binding data.

Target peptide (SARS-CoV-2 spike, HR2 region): PDVDLGDISGINAS

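The parent was found by panning a naive human phage display library on the peptide. The library (AAYL52) carries one to three amino acid substitutions per variant, with no insertions or deletions. In AlphaSeq, yeast of one mating type display the scFv and yeast of the other type display the target. Mating (16 h, 30 °C) was followed by selection of diploids and sequencing of their barcodes. Read counts were normalised to the haploid input and turned into Kd by a linear fit to BCL2-family pairs of known affinity, for each replicate. There are three technical replicates.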

The variants keep the heavy chain, the linker and the frameworks of Ab-95 (scFv order VH, a 15-residue (Gly4Ser)3 linker, VL).
VH: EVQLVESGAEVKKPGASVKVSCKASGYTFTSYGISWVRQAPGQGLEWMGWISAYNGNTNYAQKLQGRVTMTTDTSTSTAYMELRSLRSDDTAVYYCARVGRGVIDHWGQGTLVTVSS
VL: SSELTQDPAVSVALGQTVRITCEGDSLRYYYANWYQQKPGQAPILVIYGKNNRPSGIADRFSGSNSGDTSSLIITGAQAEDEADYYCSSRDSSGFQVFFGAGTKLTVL

Each variant is given by its three light chain CDRs, as the data file delimits them; those of the parent are EGDSLRYYYAN, GKNNRPS, SSRDSSGFQVF. Each Kd is an estimate from the mating assay, the geometric mean of the replicates in which the pair was seen; lower is stronger. Where no diploid with the target was found in any replicate, the entry reads "not detected": below detection, most likely a poor binder, though not proof of it. Parent in this assay: reference entry 200 nM, copy in this library 180 nM. Empty control strains, which show no peptide, gave a signal in 28% of pairings with library AAYL52; the median was 8.2 µM and 95% of these signals were weaker than 800 nM. No background was subtracted. The control count says in how many pairings with the empty strains this scFv gave a signal.

Kd (apparent),seen in,control signals,CDR-L1,CDR-L2,CDR-L3
5.2 µM,2 of 3,2 of 9,EGDSLRYYYAN,GKTVRPS,SNRDSSGFQVF
27 µM,2 of 3,1 of 9,EGDSLRYYYAN,CKNNRPS,SSRRSSGNQVF
1.1 µM,1 of 3,5 of 9,EGDCLRYYYAN,TKNNRPS,SSRDSPGFQVF
200 nM,3 of 3,6 of 9,EGDSLRNYYAN,GKNNRPS,SSPDSSLFQVF
170 µM,1 of 3,1 of 9,EGDSLRYYYAN,GKNNRPS,SSRDRSGFQWF
8.8 µM,3 of 3,1 of 9,EGDSLLYYYAN,GKGNGPS,SSRDSSGFQVF
20 µM,2 of 3,2 of 9,EGDSLRMYYAN,IKNNRPS,SSRDGSGFQVF
9.1 µM,3 of 3,6 of 9,EGDSSRYYYAN,GKNNRPS,SSHDSSGDQVF
4.4 µM,2 of 3,2 of 9,EGDSLRYYYAN,GKNNRPS,SSVDSLGFQVF
160 nM,3 of 3,3 of 9,EGDSLRYYYAN,GKNNRPS,SSKDSSAFQVL
8.3 µM,3 of 3,2 of 9,EGDSLRYYYAN,GKNNCPS,SSRDSSGFHMF
2.3 µM,1 of 3,1 of 9,EGDSLRLYYAN,GINNRPS,SSRDSSGFQVF
not detected,0 of 3,1 of 9,EGDSLRYYYAN,GKNNRPS,SSRDSHGFQAI
5.2 µM,1 of 3,0 of 9,EGISLRYYLAN,GKNNRWS,SSRDSSGFQVF
37 nM,3 of 3,4 of 9,EGDSLRNYYAN,GKNNRPS,SWRHSSGFQVF
not detected,0 of 3,2 of 9,EGCSLRYYYAN,GKNNRPS,SSRKSSGAQVF
16 µM,1 of 3,4 of 9,EGDSLDYYYAN,GKNNRPS,SLRDSDGFQVF
41 nM,3 of 3,0 of 9,EGDSLRYGYGN,GKNNRPS,CSRDSSGFQVF
96 nM,3 of 3,2 of 9,EGWSLRYYYAN,GKNQRPS,SSRDQSGFQVF
11 µM,1 of 3,6 of 9,EKDSLRYYYAN,GKNNRPS,SSHDSHGFQVF
17 µM,1 of 3,2 of 9,EGDQLRYYYAN,GKQNRPS,SSRDSSGFNVF
280 nM,2 of 3,0 of 9,EGDSLRYYPAN,GKNNRPS,SSRDVSQFQVF
170 µM,2 of 3,2 of 9,CGDSLRYYYAN,FKNNRPS,SSRDSSGFGVF
2.0 µM,1 of 3,1 of 9,TGDKLRYYYAN,GKNNRPS,SSRDSSGFWVF
7.3 µM,2 of 3,1 of 9,EGDSLRYCYAG,GKNNRPA,SSRDSSGFQVF
4.9 µM,2 of 3,4 of 9,EGDSLRYYRAD,GKNNRPS,SSRDSSGFQVF
1.2 µM,3 of 3,3 of 9,EGDSLRYYYAN,GKNNRPC,SSQDSSGFQVF
12 nM,3 of 3,5 of 9,EGDALRYNYAN,GKNNRPS,SSRDSSGFQLF
160 nM,3 of 3,4 of 9,EGDSLRYYNAN,GKNCRPS,SSRDSSGEQVF
510 nM,3 of 3,5 of 9,EGDSLRYYYAN,GKNVRPL,SSRDSSGFQDF
330 nM,3 of 3,5 of 9,EGDSLRYYYAN,GKNNRPS,SEPDSSFFQVF
5.0 µM,2 of 3,1 of 9,EGDSLRYMYAN,GKENRPS,SSRDSSTFQVF
66 nM,3 of 3,2 of 9,EGDSLRYMYAN,GKNNRPK,SSRDSSKFQVF
13 µM,2 of 3,2 of 9,EGSSMRYYYAN,GKNNRPS,SSRDSSGFQVL
11 µM,1 of 3,0 of 9,EGDSLQYYYAN,GKNNRPS,TSRDESGFQVF
580 nM,3 of 3,3 of 9,EGDSLRYYKAN,GKNNRPS,SSRLSSGFQGF
5.9 µM,2 of 3,3 of 9,EGDSLRYYQDC,GKNNRPS,SSRDSSGFQVF
240 nM,3 of 3,1 of 9,EGFSLRYYYAN,GTGNRPS,SSRDSSGFQVF
670 nM,2 of 3,2 of 9,ELDSLIYYYAN,GKNNRPS,SSRDSDGFQVF
1.7 µM,3 of 3,2 of 9,EGDSLRYYNSN,SKNNRPS,SSRDSSGFQVF
25 µM,1 of 3,4 of 9,EGDSDRYYYAD,GKNNRPS,SSRDSSDFQVF
1.2 µM,3 of 3,1 of 9,EGDSLGYYYAN,GKNNRPS,SSRHSSGFQNF
9.9 µM,2 of 3,2 of 9,ENDSLRYYYAN,GKNNRRS,SSRDSSGDQVF
43 µM,2 of 3,4 of 9,EGCSLRYYYAN,GKNNRPS,YSRISSGFQVF
150 nM,3 of 3,6 of 9,EGDSLRFYYAN,GKNNRPH,SSRDSSGFQVF
28 µM,3 of 3,7 of 9,EGDSLHYYYAN,GKVNRPS,SSRDSSVFQVF
21 nM,3 of 3,1 of 9,EGDSLPYYDAN,GKNNQPS,SSRDSSGFQVF
13 µM,1 of 3,4 of 9,EGDSLRMYYAE,GKNNRPS,SSNDSSGFQVF
650 nM,3 of 3,3 of 9,EGDSLRYYYAN,GKNNRPS,QSRDSSWVQVF
10 µM,3 of 3,4 of 9,EGDSLRYYIKN,GKNNRPS,SSRDFSGFQVF
880 nM,3 of 3,1 of 9,EGDSLREYYAN,GKNNRLS,ASRDSSGFQVF

A selection of 3 entries from above:

CDR-L1,CDR-L2,CDR-L3,Kd (apparent),seen in,control signals
EGDSLRYMYAN,GKNNRPK,SSRDSSKFQVF,66 nM,3 of 3,2 of 9
EGDSLRYYYAN,GKTVRPS,SNRDSSGFQVF,5.2 µM,2 of 3,2 of 9
EGDSLRNYYAN,GKNNRPS,SWRHSSGFQVF,37 nM,3 of 3,4 of 9